Here are results for one compound from ChEMBL document CHEMBL2417510, “Stereoselective pharmacodynamic and pharmacokinetic analysis of sec-Butylpropylacetamide (SPD), a new CNS-active derivative of valproic acid with unique activity against status epilepticus” (J Med Chem, 2013).

The subject of the assay is Cavia porcellus. The assay can be described thus: Anticonvulsant activity in ip dosed guinea pig assessed as protection against soman-induced electrographic and convulsive seizures administered 40 mins post seizure.

Regarding `CCCC(C(N)=O)C(C)CC` (racemic), the ED50 – broadly, the dose at which the effect has come halfway, by size or by number of responders – came out at 92 mg/kg.
